Measurements published in US5068325A, “4,5,7,8-tetrahydro-6H-thiazolo[5,4-d]azepines, their preparation and their use as pharmaceutical compositions” (priority 1988, dated 1991).

Sequences of proteins named here, by UniProt entry; tags and fusion partners are left off.
UniProt P19327, whole entry: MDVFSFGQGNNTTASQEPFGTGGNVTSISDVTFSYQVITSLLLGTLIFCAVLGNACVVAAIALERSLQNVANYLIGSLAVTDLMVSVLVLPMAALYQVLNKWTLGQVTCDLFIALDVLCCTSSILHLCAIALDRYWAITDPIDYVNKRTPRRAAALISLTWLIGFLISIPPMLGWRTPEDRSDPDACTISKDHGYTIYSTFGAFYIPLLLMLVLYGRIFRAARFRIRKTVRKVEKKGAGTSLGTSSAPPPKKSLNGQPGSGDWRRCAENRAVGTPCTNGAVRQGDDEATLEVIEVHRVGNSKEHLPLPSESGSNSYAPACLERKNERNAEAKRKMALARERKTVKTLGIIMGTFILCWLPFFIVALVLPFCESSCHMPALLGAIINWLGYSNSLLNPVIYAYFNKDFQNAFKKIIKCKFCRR

Target: T1, serotonin-1A(5-HT1A) receptors (Rattus norvegicus, UniProt P19327)
T1 construct: The frontal cortex was dissected out; from tissue; host or cells: rat frontal cortex homogenate (Chbb:Thom strain)
Assay: affinity for serotonin-1A (5-HT1A) receptors by displacement experiments with [3H]-8-OH-DPAT (rat frontal cortex)
Assay type: binding
Protocol: 3. […] (Method of S. J. Peroutka, J. Neurochem. 47, 529 (1986), modified according to H. Gozlan et al., J. Receptor Research 7. 195 (1987))
A male rat (Chbb:Thom strain weighing about 200 g) was decapitated. The brain was removed and placed in ice-cold buffer (50 mmol/1 tris-HCl plus hydrochloric acid ad pH =7.4 at ambient temperature). The frontal cortex was dissected out; its moist weight was determined. It was homogenised in 40 times its volume of buffer (Polytron, position 6, 10 seconds), then centrifuged for 20 minutes at 45,000×g in the refrigerated centrifuge. The pellet was washed in 100 times its volume of buffer and centrifuged again as described above. The resulting pellet was resuspended in 40 times its volume of buffer and pre-incubated for 10 minutes at 37° C. Sixty times the volume of buffer were added and centrifuging was carried out as above. The resulting pellet was washed with 100 times the volume of buffer and centrifuged as above. The pellet was resuspended in buffer (0.8 ml/10 mg) and briefly homogenised in the Polytron. This homogenised tissue was cooled in ice until ready for incubation.
Incubation was stopped by rapid filtering through Whatman GF/B filters; rinsing was carried out twice, each time with 5 ml of ice cold buffer (Filter Prep, Messrs. Ismatec). The radioactivity of the filters was determined by liquid scintillation measurement. […]

NCCc1c[nH]c2ccc(O)cc12 [Serotonin, reference compound]
Ki: 1.1 nM
